The target of test [1] is T1, Serotonin 2 (5-HT2) receptor (Rattus norvegicus, UniProt P30994+P08909+P14842). Description: Binding affinity towards 5-hydroxytryptamine 2 receptor using [3H]- ketanserin as radioligand. It is filed as protein assay.
The target of test [2] is T1, Serotonin 2 (5-HT2) receptor. Description: Binding affinity towards 5-hydroxytryptamine 2 receptor using [3H]- 1-(4-bromo-2,5-dimethoxy-phenyl)-2-aminopropane (D) as radioligand. It is filed as protein assay.
Test [3] has as its target 5-hydroxytryptamine receptor 1A (Rattus norvegicus, UniProt P19327). Kind of test: Binding affinity towards 5-hydroxytryptamine 1A receptor.

Amino acid sequences for entries named in this document (tags omitted). A change or cut given only in a name is not applied to a line headed by its entry.
UniProt P30994: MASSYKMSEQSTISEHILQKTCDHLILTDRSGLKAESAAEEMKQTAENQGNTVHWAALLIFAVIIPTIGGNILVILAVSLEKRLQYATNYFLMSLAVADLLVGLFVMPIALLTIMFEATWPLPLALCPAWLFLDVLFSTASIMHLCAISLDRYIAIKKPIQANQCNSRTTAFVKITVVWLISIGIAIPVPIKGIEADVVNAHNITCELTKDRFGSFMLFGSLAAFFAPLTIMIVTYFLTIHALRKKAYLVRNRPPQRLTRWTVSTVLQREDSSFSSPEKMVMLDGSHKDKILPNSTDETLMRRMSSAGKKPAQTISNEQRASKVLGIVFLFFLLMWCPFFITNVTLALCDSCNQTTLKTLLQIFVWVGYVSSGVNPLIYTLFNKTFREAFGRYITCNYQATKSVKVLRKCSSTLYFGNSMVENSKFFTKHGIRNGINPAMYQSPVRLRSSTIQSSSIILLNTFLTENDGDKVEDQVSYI
UniProt P08909: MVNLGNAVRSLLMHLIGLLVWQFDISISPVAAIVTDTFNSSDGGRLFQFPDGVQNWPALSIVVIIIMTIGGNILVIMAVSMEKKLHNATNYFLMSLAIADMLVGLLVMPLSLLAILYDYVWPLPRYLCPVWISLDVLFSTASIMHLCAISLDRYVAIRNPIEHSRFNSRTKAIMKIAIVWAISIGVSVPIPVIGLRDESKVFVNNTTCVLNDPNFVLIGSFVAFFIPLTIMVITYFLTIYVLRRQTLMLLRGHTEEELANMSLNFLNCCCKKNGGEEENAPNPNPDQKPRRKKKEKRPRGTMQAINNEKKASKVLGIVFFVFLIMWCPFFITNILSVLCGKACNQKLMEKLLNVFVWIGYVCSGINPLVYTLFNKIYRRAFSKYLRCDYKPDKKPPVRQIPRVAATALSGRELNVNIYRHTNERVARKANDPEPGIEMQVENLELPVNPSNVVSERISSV
UniProt P14842: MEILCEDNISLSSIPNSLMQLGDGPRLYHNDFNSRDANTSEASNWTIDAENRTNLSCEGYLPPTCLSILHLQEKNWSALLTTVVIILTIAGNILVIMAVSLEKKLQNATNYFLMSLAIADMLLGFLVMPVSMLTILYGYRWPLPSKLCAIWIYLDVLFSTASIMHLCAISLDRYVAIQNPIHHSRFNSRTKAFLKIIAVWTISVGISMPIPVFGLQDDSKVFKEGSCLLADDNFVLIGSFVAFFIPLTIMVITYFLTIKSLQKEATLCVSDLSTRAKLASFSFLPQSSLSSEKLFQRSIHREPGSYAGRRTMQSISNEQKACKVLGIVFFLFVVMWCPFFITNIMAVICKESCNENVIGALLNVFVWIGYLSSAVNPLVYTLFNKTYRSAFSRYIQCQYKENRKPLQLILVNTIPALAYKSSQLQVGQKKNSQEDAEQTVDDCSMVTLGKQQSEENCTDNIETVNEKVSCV
UniProt P19327, whole entry: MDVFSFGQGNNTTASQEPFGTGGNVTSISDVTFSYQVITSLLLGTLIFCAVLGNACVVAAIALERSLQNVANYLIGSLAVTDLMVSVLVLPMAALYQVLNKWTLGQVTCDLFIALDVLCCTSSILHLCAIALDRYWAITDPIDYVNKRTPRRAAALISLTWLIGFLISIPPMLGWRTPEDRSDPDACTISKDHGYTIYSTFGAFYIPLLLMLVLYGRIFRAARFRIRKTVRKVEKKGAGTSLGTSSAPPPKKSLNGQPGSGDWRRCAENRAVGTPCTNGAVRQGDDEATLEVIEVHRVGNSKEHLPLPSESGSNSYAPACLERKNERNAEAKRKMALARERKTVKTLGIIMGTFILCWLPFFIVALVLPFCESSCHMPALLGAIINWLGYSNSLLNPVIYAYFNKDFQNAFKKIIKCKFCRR

For `COc1ccc2[nH]cc(CCN)c2c1` [5-METHOXYTRYPTAMINE], the Ki (commonly the equilibrium dissociation constant of an inhibitor or competing ligand from its target) in test [1] was found to be 305 nM.

Regarding `COc1ccc2[nH]cc(CCN(C)C)c2c1` [MEBUFOTENIN], the inhibition constant Ki was 15 nM in test [2] and 620 nM in test [1].

For `NCCc1c[nH]c2ccc(O)cc12` [SEROTONIN], the affinity in test [3] corresponds to a Ki of 1.7 nM.

Values taken from ChEMBL document CHEMBL1124092 (J Med Chem, 1988).
